This is an account of results in US6958402B2, “3-(imidazolyl)-2-alkoxypropanoic acids” (Pfizer, Inc., priority 2002, dated 2005).

The test addresses T1, human CPN (Homo sapiens, UniProt P15169).
T1 sequence (P15169 21-458): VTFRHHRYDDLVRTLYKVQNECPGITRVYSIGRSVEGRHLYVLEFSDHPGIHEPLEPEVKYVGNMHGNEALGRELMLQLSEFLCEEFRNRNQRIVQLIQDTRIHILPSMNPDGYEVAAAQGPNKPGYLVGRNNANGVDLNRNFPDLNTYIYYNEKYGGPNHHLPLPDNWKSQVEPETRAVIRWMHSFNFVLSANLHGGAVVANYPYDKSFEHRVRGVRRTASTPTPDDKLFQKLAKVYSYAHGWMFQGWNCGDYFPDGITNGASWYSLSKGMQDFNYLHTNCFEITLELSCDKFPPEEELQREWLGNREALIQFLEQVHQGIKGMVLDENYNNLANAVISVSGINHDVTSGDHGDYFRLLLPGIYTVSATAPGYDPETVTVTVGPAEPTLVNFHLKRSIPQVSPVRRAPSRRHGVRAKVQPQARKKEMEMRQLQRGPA
T1 sequence (P22792 22-545 partner): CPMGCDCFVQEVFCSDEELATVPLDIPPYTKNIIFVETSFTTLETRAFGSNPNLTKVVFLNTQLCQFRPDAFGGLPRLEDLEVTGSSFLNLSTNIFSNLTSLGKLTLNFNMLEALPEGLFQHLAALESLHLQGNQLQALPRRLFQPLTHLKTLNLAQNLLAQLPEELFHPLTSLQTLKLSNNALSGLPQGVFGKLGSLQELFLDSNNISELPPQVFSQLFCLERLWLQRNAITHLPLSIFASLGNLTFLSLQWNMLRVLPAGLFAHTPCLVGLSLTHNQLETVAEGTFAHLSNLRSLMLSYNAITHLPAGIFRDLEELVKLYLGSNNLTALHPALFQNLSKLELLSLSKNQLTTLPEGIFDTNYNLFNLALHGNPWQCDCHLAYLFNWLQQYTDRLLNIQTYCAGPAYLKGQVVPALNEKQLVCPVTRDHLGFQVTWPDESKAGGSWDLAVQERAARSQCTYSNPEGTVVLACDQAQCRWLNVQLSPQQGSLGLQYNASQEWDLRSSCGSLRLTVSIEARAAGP
Description: CPN Ki determination (TAFIa assay with human CPN substituted for TAFIa). In kind it is biochemical. The protocol: A number of different dilutions of the test compound in water were made up. To 20 μl of each dilution was added 150 μl of HEPES buffer and 10 μl of TAFIa, which was then pre-incubated for 15 minutes at 24° C. To each dilution was then added 20 μl furylacryloyl-alanyl-lysine (FAAL) at a standard concentration. Substrate turnover was measured by reading the absorbance of the reaction mixture at 330 nm every 15 seconds for 30 minutes. The reaction was performed at 24° C. and samples were mixed for 3 seconds prior to each absorbance reading.
A graph of % inhibition against test compound concentration was then plotted; from which was calculated the IC50 value. The Ki value was then calculated using the Cheng-Prusoff equation.
The selectivity of the compounds of the present invention for TAFIa over CPN was determined by calculating the Ki of the compounds of the present invention for CPN, then comparing it to the Ki for TAFIa. The Ki was calculated using the assay for the calculation of TAFIa Ki, but substituting 10 μl of human CPN for 10 μl of TAFIa.

A value given as a limit tells only on which side of the number the result lay.

In turn, `NCCO[C@@H](Cc1cn(CCC2CCCCC2)cn1)C(=O)O` [Example 5, (2S)-(−)-2-(2-Aminoethoxy)-3-[1-(2-cyclohexylethyl)-1H-imidazol-4-yl]propanoic acid] gave an inhibition constant (Ki) above 10 µM. For the same molecule, the “Selectivity for TAFIa over CPN” value (Ki for CPN compared to Ki for TAFIa) is listed as above 1000.
